Source: patent US10087225B2, “Formulation of MK2 inhibitor peptides” (MOERAE MATRIX, INC., priority 2015, dated 2018)

Amino acid sequences for entries named in this document (tags omitted). A change or cut given only in a name is not applied to a line headed by its entry.
UniProt P57059: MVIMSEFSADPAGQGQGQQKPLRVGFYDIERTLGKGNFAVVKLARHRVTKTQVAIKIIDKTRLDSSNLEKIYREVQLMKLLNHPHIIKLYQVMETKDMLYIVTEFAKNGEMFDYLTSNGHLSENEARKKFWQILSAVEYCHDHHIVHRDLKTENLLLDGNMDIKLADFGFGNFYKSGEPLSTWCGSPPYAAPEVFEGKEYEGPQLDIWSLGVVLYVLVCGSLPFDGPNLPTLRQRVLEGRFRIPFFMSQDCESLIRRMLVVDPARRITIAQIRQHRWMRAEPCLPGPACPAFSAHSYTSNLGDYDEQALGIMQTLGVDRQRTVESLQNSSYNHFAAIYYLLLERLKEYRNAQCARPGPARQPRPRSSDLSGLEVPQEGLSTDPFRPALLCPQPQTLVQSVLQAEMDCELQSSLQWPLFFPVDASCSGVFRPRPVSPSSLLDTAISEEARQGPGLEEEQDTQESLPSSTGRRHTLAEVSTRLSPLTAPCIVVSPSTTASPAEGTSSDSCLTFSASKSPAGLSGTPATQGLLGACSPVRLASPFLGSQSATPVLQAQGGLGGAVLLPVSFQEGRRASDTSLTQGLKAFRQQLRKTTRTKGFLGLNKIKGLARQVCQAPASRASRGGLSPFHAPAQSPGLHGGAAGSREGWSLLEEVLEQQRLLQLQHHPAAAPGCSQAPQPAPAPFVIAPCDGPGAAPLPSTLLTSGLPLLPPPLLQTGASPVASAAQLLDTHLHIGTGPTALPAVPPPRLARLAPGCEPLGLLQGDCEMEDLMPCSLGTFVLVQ
UniProt Q9H2X6: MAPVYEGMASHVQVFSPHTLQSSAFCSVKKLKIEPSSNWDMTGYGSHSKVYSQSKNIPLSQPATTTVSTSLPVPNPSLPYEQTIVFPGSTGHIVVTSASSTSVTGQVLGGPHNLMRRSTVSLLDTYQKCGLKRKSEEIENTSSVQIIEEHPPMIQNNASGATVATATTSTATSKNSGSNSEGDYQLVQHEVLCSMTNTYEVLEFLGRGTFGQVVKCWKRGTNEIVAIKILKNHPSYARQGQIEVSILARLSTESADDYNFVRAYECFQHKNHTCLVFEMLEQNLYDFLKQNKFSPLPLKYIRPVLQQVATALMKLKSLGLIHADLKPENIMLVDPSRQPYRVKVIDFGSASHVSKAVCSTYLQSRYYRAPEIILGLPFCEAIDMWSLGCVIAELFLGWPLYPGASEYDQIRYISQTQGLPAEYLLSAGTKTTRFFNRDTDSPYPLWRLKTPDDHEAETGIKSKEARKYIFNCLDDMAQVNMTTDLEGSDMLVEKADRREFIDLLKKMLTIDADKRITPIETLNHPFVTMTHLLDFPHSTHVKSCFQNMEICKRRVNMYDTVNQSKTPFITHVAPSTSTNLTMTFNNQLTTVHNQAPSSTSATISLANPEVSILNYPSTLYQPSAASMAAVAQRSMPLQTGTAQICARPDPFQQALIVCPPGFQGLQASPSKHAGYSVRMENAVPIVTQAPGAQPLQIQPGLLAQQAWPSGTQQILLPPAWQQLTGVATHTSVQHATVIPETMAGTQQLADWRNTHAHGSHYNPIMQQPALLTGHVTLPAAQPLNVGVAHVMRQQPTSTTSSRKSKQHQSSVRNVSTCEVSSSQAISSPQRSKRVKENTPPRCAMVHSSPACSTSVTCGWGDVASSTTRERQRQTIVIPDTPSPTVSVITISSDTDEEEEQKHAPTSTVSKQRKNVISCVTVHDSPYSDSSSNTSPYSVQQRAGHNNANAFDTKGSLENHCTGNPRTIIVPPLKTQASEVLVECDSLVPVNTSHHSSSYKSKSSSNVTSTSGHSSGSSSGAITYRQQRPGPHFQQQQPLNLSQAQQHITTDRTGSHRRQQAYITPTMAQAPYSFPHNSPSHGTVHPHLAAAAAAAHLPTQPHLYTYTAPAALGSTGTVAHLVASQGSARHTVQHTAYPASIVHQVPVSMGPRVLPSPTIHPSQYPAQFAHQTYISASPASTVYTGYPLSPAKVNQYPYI
UniProt Q9P0L2: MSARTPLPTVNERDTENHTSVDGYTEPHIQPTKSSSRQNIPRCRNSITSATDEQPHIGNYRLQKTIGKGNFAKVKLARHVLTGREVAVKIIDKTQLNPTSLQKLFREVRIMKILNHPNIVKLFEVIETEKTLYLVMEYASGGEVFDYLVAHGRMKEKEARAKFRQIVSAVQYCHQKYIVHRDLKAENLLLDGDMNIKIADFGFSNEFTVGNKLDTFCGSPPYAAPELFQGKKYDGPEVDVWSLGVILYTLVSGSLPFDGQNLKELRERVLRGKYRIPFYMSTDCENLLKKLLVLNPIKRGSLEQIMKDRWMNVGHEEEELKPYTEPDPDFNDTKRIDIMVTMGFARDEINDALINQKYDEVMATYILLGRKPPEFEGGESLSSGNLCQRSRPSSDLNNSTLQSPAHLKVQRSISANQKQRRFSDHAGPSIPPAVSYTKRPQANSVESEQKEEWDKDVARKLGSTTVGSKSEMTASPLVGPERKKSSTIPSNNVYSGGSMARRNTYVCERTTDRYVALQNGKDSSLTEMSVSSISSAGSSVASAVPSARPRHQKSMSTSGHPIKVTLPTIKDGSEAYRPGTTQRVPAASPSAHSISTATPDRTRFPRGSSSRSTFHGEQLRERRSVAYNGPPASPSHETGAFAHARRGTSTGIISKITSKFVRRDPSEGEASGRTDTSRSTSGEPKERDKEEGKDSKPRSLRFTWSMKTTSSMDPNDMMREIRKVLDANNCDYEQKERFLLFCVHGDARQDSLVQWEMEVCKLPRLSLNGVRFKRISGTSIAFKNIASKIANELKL
UniProt Q06187, whole entry R28H: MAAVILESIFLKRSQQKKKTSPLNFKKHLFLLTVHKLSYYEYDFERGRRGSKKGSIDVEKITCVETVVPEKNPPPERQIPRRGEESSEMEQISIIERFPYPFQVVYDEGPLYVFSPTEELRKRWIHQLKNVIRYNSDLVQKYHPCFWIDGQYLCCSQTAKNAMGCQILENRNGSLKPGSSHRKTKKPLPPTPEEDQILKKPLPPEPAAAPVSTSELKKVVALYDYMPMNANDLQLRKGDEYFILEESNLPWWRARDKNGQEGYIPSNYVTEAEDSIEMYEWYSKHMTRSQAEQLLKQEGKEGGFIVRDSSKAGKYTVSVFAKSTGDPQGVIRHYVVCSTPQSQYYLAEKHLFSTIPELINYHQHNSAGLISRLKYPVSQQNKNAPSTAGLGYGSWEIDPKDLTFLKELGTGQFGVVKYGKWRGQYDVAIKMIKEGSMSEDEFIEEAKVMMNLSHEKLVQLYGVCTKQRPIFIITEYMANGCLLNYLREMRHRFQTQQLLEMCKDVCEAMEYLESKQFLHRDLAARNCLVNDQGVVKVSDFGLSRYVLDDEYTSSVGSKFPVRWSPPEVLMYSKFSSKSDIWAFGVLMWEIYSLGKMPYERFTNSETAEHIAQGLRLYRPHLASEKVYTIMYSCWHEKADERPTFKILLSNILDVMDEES
UniProt Q9H4B4: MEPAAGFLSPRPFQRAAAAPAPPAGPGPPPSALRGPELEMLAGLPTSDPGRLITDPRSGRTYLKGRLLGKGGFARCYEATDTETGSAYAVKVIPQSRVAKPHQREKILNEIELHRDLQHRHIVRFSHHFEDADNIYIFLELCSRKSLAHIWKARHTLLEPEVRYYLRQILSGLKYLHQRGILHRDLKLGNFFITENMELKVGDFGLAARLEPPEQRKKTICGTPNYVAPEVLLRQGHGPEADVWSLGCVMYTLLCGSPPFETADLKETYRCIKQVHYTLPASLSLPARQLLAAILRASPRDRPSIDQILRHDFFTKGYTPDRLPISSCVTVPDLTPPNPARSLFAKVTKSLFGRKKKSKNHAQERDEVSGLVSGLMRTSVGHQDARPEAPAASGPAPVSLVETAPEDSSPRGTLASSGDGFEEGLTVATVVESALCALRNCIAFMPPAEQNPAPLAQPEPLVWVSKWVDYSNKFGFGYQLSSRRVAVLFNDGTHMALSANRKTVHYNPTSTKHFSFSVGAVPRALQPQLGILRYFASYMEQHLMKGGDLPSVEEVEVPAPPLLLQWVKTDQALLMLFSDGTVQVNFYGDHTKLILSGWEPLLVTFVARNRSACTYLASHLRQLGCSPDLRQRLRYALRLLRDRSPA

Assays:
Assay in all cases: Kinase Profiling Assay
Format in all cases: biochemical
Settings in all cases: 100 μM
SIK(h) = SIK(h) (Homo sapiens, UniProt P57059)
HIPK2(h) = HIPK2(h) (Homo sapiens, UniProt Q9H2X6)
MARK1(h) = MARK1(h) (Homo sapiens, UniProt Q9P0L2)
BrSK2(h) = target: T1, BrSK2(h) (Homo sapiens, UniProt Q8IWQ3)
T1 sequence (Q8IWQ3 1-736): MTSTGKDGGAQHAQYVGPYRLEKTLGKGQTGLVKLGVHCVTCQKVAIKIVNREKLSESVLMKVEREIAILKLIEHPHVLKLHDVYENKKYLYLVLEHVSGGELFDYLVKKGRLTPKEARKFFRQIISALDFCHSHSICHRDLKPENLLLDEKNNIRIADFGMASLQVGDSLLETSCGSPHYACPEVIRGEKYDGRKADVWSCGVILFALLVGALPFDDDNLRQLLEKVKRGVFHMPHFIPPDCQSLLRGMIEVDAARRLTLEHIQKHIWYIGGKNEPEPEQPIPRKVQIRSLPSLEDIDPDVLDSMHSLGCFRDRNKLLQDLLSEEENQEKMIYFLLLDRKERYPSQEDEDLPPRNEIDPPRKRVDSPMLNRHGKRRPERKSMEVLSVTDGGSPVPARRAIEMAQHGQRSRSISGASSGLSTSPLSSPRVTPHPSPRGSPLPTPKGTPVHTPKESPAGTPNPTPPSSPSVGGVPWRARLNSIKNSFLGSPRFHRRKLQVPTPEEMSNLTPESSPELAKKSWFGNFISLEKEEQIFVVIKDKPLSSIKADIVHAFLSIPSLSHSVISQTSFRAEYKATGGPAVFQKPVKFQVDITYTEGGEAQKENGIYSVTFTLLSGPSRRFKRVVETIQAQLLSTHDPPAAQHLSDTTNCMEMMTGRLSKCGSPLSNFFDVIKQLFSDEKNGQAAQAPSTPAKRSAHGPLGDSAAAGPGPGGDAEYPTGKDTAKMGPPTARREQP

BTK(R28H)(h) = BTK(R28H)(h) (Homo sapiens, UniProt Q06187, R28H)
PrKX(h) = target: T2, PrKX(h) (Homo sapiens, UniProt P51817)
T2 sequence (P51817 1-358): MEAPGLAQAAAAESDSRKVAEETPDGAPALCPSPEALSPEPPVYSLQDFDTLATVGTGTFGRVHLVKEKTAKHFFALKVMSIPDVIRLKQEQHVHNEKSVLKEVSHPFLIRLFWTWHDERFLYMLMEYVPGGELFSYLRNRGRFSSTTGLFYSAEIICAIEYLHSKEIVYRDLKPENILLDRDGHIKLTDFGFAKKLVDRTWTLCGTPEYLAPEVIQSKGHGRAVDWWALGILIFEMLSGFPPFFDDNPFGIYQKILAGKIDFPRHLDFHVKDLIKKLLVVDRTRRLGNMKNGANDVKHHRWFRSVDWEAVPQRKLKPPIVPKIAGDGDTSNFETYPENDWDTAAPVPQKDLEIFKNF

Plk3(h) = Plk3(h) (Homo sapiens, UniProt Q9H4B4)
MST2(h) = target: T3, MST2(h) (Homo sapiens, UniProt Q13188)
T3 sequence (Q13188 1-491): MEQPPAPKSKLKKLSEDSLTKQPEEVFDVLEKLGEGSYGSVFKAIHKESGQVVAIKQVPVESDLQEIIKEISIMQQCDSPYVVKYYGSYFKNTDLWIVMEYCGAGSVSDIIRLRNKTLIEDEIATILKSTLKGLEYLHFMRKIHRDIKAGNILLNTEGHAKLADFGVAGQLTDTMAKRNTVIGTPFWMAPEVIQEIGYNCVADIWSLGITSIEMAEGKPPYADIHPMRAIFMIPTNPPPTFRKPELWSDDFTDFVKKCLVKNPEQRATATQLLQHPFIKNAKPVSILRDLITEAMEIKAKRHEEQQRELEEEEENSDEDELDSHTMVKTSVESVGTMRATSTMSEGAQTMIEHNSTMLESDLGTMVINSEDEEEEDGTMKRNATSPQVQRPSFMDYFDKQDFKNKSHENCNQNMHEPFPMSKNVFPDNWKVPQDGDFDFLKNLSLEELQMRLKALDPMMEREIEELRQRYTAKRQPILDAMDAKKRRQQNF

TAO1(h) = target: T4, TAO1(h) (Homo sapiens, UniProt Q7L7X3)
T4 sequence (Q7L7X3 1-1001): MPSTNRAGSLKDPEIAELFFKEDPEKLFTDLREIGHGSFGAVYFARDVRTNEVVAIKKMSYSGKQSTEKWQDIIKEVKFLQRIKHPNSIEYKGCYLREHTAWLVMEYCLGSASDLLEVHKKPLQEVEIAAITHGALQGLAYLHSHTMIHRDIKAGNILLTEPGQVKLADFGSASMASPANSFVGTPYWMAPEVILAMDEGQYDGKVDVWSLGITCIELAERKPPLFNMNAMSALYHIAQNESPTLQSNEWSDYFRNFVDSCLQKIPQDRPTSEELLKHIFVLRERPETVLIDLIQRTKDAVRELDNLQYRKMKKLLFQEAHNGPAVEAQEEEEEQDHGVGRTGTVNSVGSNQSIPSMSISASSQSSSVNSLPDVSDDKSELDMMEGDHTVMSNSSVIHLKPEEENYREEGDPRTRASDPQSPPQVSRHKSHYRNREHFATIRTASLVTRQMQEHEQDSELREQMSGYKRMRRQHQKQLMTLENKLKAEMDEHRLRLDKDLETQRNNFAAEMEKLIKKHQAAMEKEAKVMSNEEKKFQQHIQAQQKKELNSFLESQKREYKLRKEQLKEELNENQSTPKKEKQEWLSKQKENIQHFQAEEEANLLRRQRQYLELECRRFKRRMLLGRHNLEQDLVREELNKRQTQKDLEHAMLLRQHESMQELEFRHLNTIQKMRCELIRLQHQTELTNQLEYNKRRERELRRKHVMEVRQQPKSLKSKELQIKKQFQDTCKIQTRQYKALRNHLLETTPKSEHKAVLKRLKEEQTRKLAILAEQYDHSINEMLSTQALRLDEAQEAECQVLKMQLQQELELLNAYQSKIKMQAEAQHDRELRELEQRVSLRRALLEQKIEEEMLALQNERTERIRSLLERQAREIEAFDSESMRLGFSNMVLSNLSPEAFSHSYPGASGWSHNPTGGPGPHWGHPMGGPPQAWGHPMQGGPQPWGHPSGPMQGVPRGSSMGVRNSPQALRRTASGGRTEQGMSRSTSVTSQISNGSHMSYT

For “YARAAARQARAKALNRQLGVA (Mammalian) [MMI-0200]”, the “% activity” value (SIK(h)) was 102%, the “% activity” value (HIPK2(h)) was 102% and the “% activity” value (MARK1(h)) was 102%. For the same sequence, the “% activity” value (BrSK2(h)) was 102%, the “% activity” value (BTK(R28H)(h)) was 104% and the “% activity” value (PrKX(h)) was 112%. For the same sequence, the “% activity” value (Plk3(h)) was 107%, the “% activity” value (MST2(h)) was 104% and the “% activity” value (TAO1(h)) was 105%.
